Molecular target: Prostaglandin G/H synthase 1 (Homo sapiens, UniProt P23219)

Protein sequences, listed by entry. Tags and fused reporters are not part of them.
UniProt P23219, whole entry: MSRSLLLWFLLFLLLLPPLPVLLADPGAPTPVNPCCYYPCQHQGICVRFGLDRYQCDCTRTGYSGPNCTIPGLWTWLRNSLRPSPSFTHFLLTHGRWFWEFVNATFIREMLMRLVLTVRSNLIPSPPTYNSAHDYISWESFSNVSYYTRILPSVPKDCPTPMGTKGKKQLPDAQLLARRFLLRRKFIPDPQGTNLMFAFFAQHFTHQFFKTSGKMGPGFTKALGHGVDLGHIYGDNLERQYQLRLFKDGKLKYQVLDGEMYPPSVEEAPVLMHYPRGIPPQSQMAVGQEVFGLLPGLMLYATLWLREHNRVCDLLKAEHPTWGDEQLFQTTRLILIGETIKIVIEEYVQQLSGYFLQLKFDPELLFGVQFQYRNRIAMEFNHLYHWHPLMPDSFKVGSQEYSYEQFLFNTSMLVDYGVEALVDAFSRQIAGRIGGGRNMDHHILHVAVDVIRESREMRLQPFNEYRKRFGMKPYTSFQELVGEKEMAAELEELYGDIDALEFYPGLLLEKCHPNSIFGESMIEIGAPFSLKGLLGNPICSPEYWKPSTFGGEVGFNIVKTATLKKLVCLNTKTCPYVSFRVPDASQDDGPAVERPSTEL

- Ki: 760 nM
Structure (SMILES): CN1C(C(=O)Nc2ccccn2)=C(O)c2ccccc2S1(=O)=O [NSC_4856]

— BindingDB's records for PubMed 11160644 (Merck Frosst Centre For Therapeutic Research, 2001)
